Biological target: CDK2/Cyclin A2 (Homo sapiens, UniProt P24941)
Assay: Inhibition of human N-terminal GST-tagged CDK2 (1 to 298 residues)/Cyclin A (174 to 432 residues) expressed in Escherichia coli Turner (DE3) cells assessed as reduction in ADP formation using PKTPKKAKKL as substrate by resorufin dye based fluorescence assay

IC50: 56 µM
SMILES: Cc1nn(-c2ccccc2)c2c1C(=O)CC(C)(C)C2Br (stereo unspecified)
